This note sets out measurements from patent US20080305049A1, “Mri Contrast Agents for Diagnosis and Prognosis of Tumors” (priority 2005, published 2008).

This series can be described thus: T1 and T2 relaxivity of water at 4.7 Tesla. It is filed as physicochemical.

“gadolinium chelate of 2,2′,2″,2′″-[(pyridine-2,6-diyl)bis(methylenenitrilo) tetrakis(acetic acid) [reference compound]”: the T1 relaxivity amounted to 6.0 ± 0.2 mM⁻¹ s⁻¹ and the T2 relaxivity was found to be 6.6 ± 0.8 mM⁻¹ s⁻¹.
